Test results as given in patent publication US9221831B2, “Buprenorphine analogs” (dated 2015).

Protein sequences, listed by entry. Tags and fused reporters are not part of them. Lines headed by an entry give the natural chain unless they say otherwise; changes in a name come on top.
UniProt P41146: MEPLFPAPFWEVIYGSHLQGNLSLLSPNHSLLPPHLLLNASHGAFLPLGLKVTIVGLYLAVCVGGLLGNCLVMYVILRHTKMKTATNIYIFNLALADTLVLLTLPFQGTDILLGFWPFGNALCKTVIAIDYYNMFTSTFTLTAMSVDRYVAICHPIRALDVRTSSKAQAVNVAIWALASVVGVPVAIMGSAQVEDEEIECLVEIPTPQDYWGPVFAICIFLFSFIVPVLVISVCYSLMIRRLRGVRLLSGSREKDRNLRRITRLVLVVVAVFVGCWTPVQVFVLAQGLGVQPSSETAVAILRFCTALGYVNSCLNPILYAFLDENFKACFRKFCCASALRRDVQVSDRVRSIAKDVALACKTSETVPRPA

Experiments:
rats [1] = test: rat hot plate test (acute pain); settings: subcutaneously, at 1, 3 and 5 hours following drug administration (FIG. 2)
rats [2] = test: rat tail flick test (acute pain); settings: subcutaneously
ORL-1 = ORL-1 (Homo sapiens (Human), UniProt P41146); settings: read-out: IC50 (at least partial agonist for ORL-1); Wnendt et al., Molec. Pharmacol. 1999; cited from earlier work

Compound	hot plate latencies (rats [1]; 1 mg/kg)	hot plate latencies (rats [1]; 3 mg/kg)	tail flick latencies (rats [2]; 1 mg/kg, at 1 hour following drug administration (FIG. 1))	tail flick latencies (rats [2]; 3 mg/kg, at 1, 3 and 5 hours after drug administration, compared to vehicle treated rats (FIG. 1))	IC50 (ORL-1) [µM]
CO[C@]12CC[C@@]3(C[C@@H]1COCc1ccccc1)[C@H]1Cc4ccc(O)c5c4[C@@]3(CCN1)[C@H]2O5	significantly increased	significantly increased	significantly increased	significantly increased	
7-benzylidenenaltrexone					10
